The chains behind the UniProt entries cited, without tags or fusion partners.
Neuropilin-1 (Homo sapiens), O14786, UniProt O14786, whole entry, looked up: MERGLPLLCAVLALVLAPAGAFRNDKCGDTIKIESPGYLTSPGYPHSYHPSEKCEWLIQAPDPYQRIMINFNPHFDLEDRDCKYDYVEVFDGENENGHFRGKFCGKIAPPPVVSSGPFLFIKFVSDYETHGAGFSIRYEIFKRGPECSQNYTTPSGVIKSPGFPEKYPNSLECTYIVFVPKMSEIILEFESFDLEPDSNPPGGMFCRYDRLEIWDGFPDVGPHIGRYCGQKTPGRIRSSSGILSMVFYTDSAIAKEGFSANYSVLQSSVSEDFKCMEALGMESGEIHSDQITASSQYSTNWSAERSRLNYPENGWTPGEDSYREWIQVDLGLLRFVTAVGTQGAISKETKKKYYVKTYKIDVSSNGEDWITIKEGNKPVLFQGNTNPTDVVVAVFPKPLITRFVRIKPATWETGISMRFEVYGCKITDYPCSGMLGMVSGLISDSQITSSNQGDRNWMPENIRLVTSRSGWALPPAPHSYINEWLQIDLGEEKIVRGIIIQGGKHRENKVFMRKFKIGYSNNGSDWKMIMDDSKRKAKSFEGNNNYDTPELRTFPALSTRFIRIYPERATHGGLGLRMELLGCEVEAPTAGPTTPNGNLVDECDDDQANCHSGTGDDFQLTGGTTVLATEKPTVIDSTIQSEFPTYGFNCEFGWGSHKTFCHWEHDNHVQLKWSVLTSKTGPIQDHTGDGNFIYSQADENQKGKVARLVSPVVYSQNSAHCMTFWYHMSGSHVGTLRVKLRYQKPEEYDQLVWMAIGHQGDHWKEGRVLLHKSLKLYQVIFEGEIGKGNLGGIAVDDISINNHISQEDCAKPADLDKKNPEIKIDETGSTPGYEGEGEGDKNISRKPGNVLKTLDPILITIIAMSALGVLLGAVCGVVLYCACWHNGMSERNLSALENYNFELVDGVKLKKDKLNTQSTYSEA
ADP-ribosylation factor GTPase-activating protein 1 (Rattus norvegicus), Q62848, UniProt Q62848, whole entry, looked up: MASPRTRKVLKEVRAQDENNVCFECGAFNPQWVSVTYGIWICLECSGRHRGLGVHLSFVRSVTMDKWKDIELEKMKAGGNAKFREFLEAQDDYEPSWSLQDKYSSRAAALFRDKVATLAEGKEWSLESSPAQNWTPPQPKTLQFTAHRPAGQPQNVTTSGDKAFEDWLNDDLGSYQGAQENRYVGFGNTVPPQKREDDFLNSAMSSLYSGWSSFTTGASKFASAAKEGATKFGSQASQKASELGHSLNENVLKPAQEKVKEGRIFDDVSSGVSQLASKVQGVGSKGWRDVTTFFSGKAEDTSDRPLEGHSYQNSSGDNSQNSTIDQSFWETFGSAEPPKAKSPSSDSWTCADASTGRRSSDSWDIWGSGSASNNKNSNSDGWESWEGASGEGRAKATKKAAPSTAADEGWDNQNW
Melanocortin receptor 4 (Homo sapiens), P32245, UniProt P32245, whole entry, looked up: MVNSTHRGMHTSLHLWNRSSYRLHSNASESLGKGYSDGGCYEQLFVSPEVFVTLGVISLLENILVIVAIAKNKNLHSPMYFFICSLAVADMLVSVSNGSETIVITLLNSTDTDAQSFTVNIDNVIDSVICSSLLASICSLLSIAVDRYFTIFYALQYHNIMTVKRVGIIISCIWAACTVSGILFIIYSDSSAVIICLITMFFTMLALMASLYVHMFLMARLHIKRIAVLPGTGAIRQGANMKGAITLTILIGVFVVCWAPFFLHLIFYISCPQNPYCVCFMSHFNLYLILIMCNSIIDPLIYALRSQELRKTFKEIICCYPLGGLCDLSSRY

# MC4R antagonist: MC4R antagonists of cAMP signaling, primary screen, cell-based, TR-FRET, antagonist arm of biased-ligand search; MC4R-expressing cells, MTII-stimulated cAMP, LANCE TR-FRET; inhibition, % at 6.5 µM; actives 0.48% (n = 360,000); AID 540295, 2011;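 active = inhibition above its plate's cutoff, the mean of tested wells on that plate plus 3 SD, cut at about 29% in these data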;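 note: 0% = Melanotan II alone and 100% = Melanotan II plus saturating MCL0020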
#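 Assay system: human MC4R-expressing U2OS cells; reagent: Melanotan II stimulation of cells; dosing: 6.5 µM single dose; timing: compound 30 min, challenge 1 h, detection 1 h; signal: TR-FRET cAMP assay; replicates: one well per compound, no replicates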
# NRP1-CendR mod: modulators of CendR peptide binding to NRP-1, primary screen, biochemical, fluorescence polarization, uHTS; Neuropilin-1 (Homo sapiens), O14786; FAM-RPARPAR peptide binding to NRP-1; inhibition, % at 25 µM; actives 0.85% (n = 360,000); AID 602438, 2012;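 active = inhibition or corrected inhibition above about 18%, plus a signal ratio from 0.5 to 1.5, limit read from the data, passing the limit was not always enough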
# ARFGAP1 inhibitor: inhibitors of rat ARFGAP1 GAP activity, primary screen, biochemical, fluorescence polarization, GDP tracer; ADP-ribosylation factor GTPase-activating protein 1 (Rattus norvegicus), Q62848; Arfgap1-stimulated ARF1 GTP hydrolysis, GDP FP detection; inhibition, % at 16.5 µM; actives 0.26% (n = 360,000);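 active = inhibition above a per-plate limit, mean inhibition of low control wells plus 3 SD, cut at about 25% in these data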;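 note: 0% = DMSO wells with enzyme and 100% = wells lacking Arfgap1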
#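 material = rat Arfgap1 catalytic domain, aa 1-136 | also added = human ARF1(Δ1-17)-GTP substrate | compound dosing = one concentration, 16.5 µM, DMSO 1.26% | times = GTP hydrolysis reaction 2 h at 25 °C | measured by = FP, GDP Alexa 633 tracer displaced from anti-GDP antibody, 620/688 nm | evaluation = percent inhibition of Arfgap1-stimulated GTP hydrolysis | replication = single well per compound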
# MC4R ag barr: MC4R agonists recruiting beta-arrestin, primary screen, cell-based, luminescence, agonist arm of biased-ligand search; Melanocortin receptor 4 (Homo sapiens), P32245; U2OS MC4R beta-arrestin complementation; percent of melanotan II response, DMSO zero; activation, % at 8.9 µM; actives 0.98% (n = 360,000);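 active = activation above a per-plate cutoff, the mean activation of sample wells on that plate plus 3 SD, cut at about 8% in these data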
# Yeast UUG start: alters start codon recognition fidelity in yeast. S. cerevisiae UUG-firefly luciferase reporter, luminescence/redox ratio. activity score, % at 18.7 µM. 0.13% of 350,000 active. AID 602363;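 active = replicate mean at a twofold rise or more, about +100% in these data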;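 also: firefly luciferase made from a UUG start codon reports start codon fidelity; reporter light over untreated wells divided by growth signal over untreated wells; some hits fall short of that in this replicate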
# ASAP1 inh: inhibitors of human ASAP1 ArfGAP activity, primary screen, biochemical, fluorescence polarization. Arf-GAP with SH3 domain, ANK repeat and PH domain-containing protein 1 (Homo sapiens), …. ASAP1-stimulated ARF1 GTP hydrolysis, GDP FP detection. inhibition, % at 16.5 µM. actives 0.19% (n = 360,000). AID 624377, 2012; in the data active = inhibition above about 25%;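 note: 0% = vehicle with enzyme and substrate and 100% = no enzyme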
# MC4R barr conf: MC4R beta-arrestin agonists, retest, confirmation, cell-based, luminescence, U2OS | shares compounds with MC4R ag barr | U2OS MC4R beta-arrestin recruitment; scaled DMSO 0%, Melanotan II 100% | activation, % at 8.9 µM | actives 31% (n = 2,400) | AID 602192, 2012;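 active = mean activation across replicates above the hit cutoff set in the earlier primary screen, cut at about 8% in these data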
# MOR DOR agonist: agonists of MOR-DOR heterodimerization, counter-screen for MC4R biased agonist project, cell-based, luminescence; U2OS PathHunter beta-arrestin, beta-gal luminescence; percent of deltorphin B response, DMSO zero; actives 5.8% (n = 2,400); activation, % at 9.2 µM; AID 602194, 2012; shares compounds with MC4R ag barr;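 active = mean activation across replicates exceeds the hit threshold derived in the earlier primary screen, cut at about 18% in these data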;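 note: 100% = deltorphin B at 0.9 µM final and 0% = DMSO alone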
# Numbers without * were called inactive; · = not tested or not shown. An excerpt weighted towards active compounds, which were near 2.3% of everything screened.
mol,MC4R antagonist,NRP1-CendR mod,ARFGAP1 inhibitor,MC4R ag barr,Yeast UUG start,ASAP1 inh,MC4R barr conf,MOR DOR agonist
CCOC(=O)c1c(CSC(=N)N)n(-c2ccc(C)cc2)c2cc(Br)c(OC(C)=O)cc12,1,3,11,29*,-12,-20,14*,51*
CCOC(=O)c1c(NC(=O)CN2CCCc3ccccc32)sc(C(C)=O)c1C,4,-13,-5,23*,·,9,2,2
COc1ccc(S(=O)(=O)Nc2cccc3c2O[C@H](CN(C)S(C)(=O)=O)[C@H](C)CN([C@H](C)CO)C3=O)cc1,·,·,·,·,8,·,·,·
C[C@H]1CN([C@@H](C)CO)C(=O)c2cccc(NC(=O)c3ccncc3)c2O[C@@H]1CN(C)C(=O)NC1CCCCC1,·,·,·,·,-10,·,·,·
COc1ccc(C(NC(=O)C2CCN(CCOc3ccc(F)cc3)CC2)c2cccs2)cc1 (stereo unspecified),4,-20,0,-2,6,-4,·,·
O=C(NC(c1ccccc1)c1ccsc1)C1CCN(CCOc2ccc(Cl)cc2Cl)CC1 (stereo unspecified),-1,7,-3,54*,-29,-3,47*,9
COc1ccc(C(NC(=O)C2CCN(CCOc3ccc(Cl)cc3Cl)CC2)c2cccs2)cc1 (stereo unspecified),5,-10,1,111*,15,13,32*,11
COc1ccc(C(NC(=O)C2CCN(CCOc3ccc(Cl)cc3Cl)CC2)c2ccccc2C)cn1 (stereo unspecified),3,-2,-1,53*,2,-4,35*,13
COc1ccc(CN(C)C[C@H]2Oc3ccc(NC(=O)Cc4cn(C)c5ccccc45)cc3C(=O)N([C@@H](C)CO)C[C@H]2C)cc1,·,·,·,·,-5,·,·,·
O=C(COC(=O)/C=C/c1ccccc1Cl)NCCNC(=O)COC(=O)/C=C/c1ccccc1Cl,4,-1,2,12*,-8,7,1,4
O=C(C[C@@H]1CC[C@@H](NC(=O)C2CC2)[C@H](CO)O1)NC1CCC1,·,·,·,·,-12,·,·,·
Cc1noc(C)c1NC(=O)N(C)C[C@@H]1Oc2ccc(NS(=O)(=O)c3ccccc3)cc2CC(=O)N([C@H](C)CO)C[C@@H]1C,·,·,·,·,6,·,·,·
O=C(N/N=C/c1ccc(O)cc1)c1ccc(COc2cc(Cl)ccc2Cl)o1,5,-21,9,26*,-15,-8,40*,9
O=C(Nc1ccn(Cc2ccccc2F)n1)c1ccc(COc2cc(Cl)ccc2Cl)o1,2,0,9,6,-9,9,·,·
O=C(Nc1ccn(Cc2c(F)c(F)cc(F)c2F)n1)c1ccc(COc2cc(Cl)ccc2Cl)o1,8,-1,-6,11*,1,-3,3,3
O=C(Nc1cccnc1)c1ccc(COc2cc(Cl)ccc2Cl)o1,2,4,10,0,-13,-3,·,·
C[C@@H]1CN([C@@H](C)CO)S(=O)(=O)c2ccc(-c3cccnc3)cc2O[C@@H]1CN(C)C(=O)NC1CCCC1,·,·,·,·,-6,·,·,·
O=C(C[C@H]1CC[C@H](NC(=O)c2cccc(F)c2)[C@H](CO)O1)NCc1ccc(Oc2ccccc2)cc1,·,·,·,·,-5,·,·,·
Cc1c(CCOC(=O)C23CC4(C)CC(C)(CC(C)(C4)C2)C3)sc[n+]1CC(=O)c1ccccc1,-2,-2,8,17*,·,9,16*,18
C[C@@H]1CN([C@H](C)CO)S(=O)(=O)c2ccc(C#CC3(O)CCCC3)cc2O[C@H]1CN(C)C(=O)Nc1ccccc1,·,·,·,·,1,·,·,·
C/C(=C\c1ccco1)C1C(C#N)=C(N)Oc2n[nH]c(-c3ccc(C)cc3)c21 (stereo unspecified),10,-8,-1,16*,-17,3,23*,11
O=C(O)CCCN1C(=O)/C(=C/c2cn(-c3ccccc3)nc2-c2cccs2)SC1=S,19,-155,-14,9.9*,·,-19,6,1
Cc1ccccc1-c1cnc2c(c1)C(=O)N([C@@H](C)CO)C[C@@H](C)[C@@H](CN(C)Cc1cccnc1)O2,·,·,·,·,0,·,·,·
O=c1c2ccccc2nnn1CSc1nnc(Nc2ccccc2)s1,2,-8,-5,10*,-25,5,0,2
C[C@@H]1CCCCO[C@@H](CN(C)Cc2ccc(C(F)(F)F)cc2)[C@@H](C)CN([C@@H](C)CO)C(=O)c2cc(NC(=O)CCC(F)(F)F)ccc2O1,·,·,·,·,12,·,·,·

# Arranged by the number under MC4R ag barr (largest number first): three from the list above.
SMILES | MC4R antagonist | NRP1-CendR mod | ARFGAP1 inhibitor | MC4R ag barr | Yeast UUG start | ASAP1 inh | MC4R barr conf
COc1ccc(C(NC(=O)C2CCN(CCOc3ccc(Cl)cc3Cl)CC2)c2ccccc2C)cn1 (stereo unspecified) | 3 | -2 | -1 | 53* | 2 | -4 | 35*
CCOC(=O)c1c(NC(=O)CN2CCCc3ccccc32)sc(C(C)=O)c1C | 4 | -13 | -5 | 23* | · | 9 | 2
COc1ccc(C(NC(=O)C2CCN(CCOc3ccc(F)cc3)CC2)c2cccs2)cc1 (stereo unspecified) | 4 | -20 | 0 | -2 | 6 | -4 | ·

# Following part
mol,MC4R antagonist,NRP1-CendR mod,ARFGAP1 inhibitor,MC4R ag barr,Yeast UUG start,ASAP1 inh,MC4R barr conf,MOR DOR agonist
COc1ccc2cc3cc(C(=O)NCc4cccs4)oc3nc2c1,-5,-1,4,11*,-9,2,7,9
COC(=O)CCCN1C(=O)NC(c2ccc(-c3ccccc3)cc2)C(C(=O)OCc2ccccc2)=C1C (stereo unspecified),6,-13,-12,12*,-10,10,12*,3
COc1ccc(-c2nnc3sc(-c4cccs4)nn23)cc1OC,-14,-4,-6,-1,-18,9,·,·
COc1cc(-c2nnc3sc(-c4cccs4)nn23)cc(OC)c1OC,-29,11,-1,15*,-18,-1,-1,6
O=C1CCc2cc(S(=O)(=O)N3CCN(c4ccc(F)cc4)CC3)cc3c2N1CC3,-4,-2,-8,13*,·,-15,3,4
O=C1CCc2cc(S(=O)(=O)N3CCN(c4ccccc4)CC3)cc3c2N1CCC3,5,6,-14,-2,-14,2,·,·
COc1ccc(NC(=O)CN(C)C(=O)/C=C/c2ccc(OCc3ccccc3)cc2)cc1,-1,-6,20,19*,-3,9,8,12
COc1ccc(NC(=O)CN(C)C(=O)/C=C/c2ccc(S(=O)(=O)N3CCCCCC3)cc2)cc1,0,12,13,30*,-2,-3,11*,2
COc1ccc(NC(=O)CN(C)C(=O)CCc2ccccc2)cc1,-1,-11,-2,-1,-22,3,·,·

# Quoted from the listing.
# COc1ccc(NC(=O)CN(C)C(=O)/C=C/c2ccc(OCc3ccccc3)cc2)cc1 in MOR DOR agonist has 12
# COc1cc(-c2nnc3sc(-c4cccs4)nn23)cc(OC)c1OC in NRP1-CendR mod has 11

# High-throughput results: PubChem, several laboratories
